Calls of active or inactive are those of the source. No cut-off for these calls is given here.
What follows are compounds tested against NAD(P)H dehydrogenase [quinone] 1 (Homo sapiens) (UniProt P15559). Conditions: time < 1.0 min.

Chains of the proteins cited; added tags and fusions are not shown.
UniProt P15559, whole entry: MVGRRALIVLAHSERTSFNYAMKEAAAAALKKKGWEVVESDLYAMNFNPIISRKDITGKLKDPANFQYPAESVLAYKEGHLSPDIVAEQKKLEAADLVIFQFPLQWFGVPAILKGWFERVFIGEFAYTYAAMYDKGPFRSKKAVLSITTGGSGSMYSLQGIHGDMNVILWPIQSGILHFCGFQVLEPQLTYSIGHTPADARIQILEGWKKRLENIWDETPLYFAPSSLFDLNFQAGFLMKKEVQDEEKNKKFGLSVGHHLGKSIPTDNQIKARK

| Structure (SMILES) | inhibition |
| --- | --- |
| COc1cc(-c2ccc3nc(N)oc3c2)cc(OC)c1OC | inactive |
| COc1cc(-c2cnc3nc(N)ccc3c2)cc(OC)c1OC | inactive |
| COc1cc(-c2ncc3cc(N)ccc3n2)cc(OC)c1OC | inactive |
| COc1cc(-c2ccc3nc(N)sc3c2)cc(OC)c1OC | inactive |
| COc1cc(-c2ccc3cc(N)ccc3c2)cc(OC)c1OC | inactive |

Next, values leading:

| inhibition | Structure (SMILES) |
| --- | --- |
| inactive | COc1cc2ncc(-c3ccc(N)cc3)nc2cc1OC |
| inactive | COc1cc2ncc(-c3ccc(O)cc3)nc2cc1OC |
| inactive | COc1cc(-c2ccc3nc(N)ncc3c2)cc(OC)c1OC |
| inactive | COc1cc(-c2cnc3cc(N)ccc3c2)cc(OC)c1OC |
| inactive | COc1cc(-c2cnc3cc(N)ccc3n2)cc(OC)c1OC |
| inactive | COc1ccc2ncc(-c3ccc(N)cc3)nc2c1 |
